SR-BI DiI-HDL act = enhances SR-BI lipid uptake from DiI-HDL | CHO ldlA[mSR-BI] cells, DiI-HDL uptake fluorescence, 3 h; 100 = double the neutral-control signal | activation, % at 12.5 µM | 320,000 tested, 0.096% active | AID 504775;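 active = mean replicate activation of at least 60% and every replicate at or above 60%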;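 also: 0% = median plate neutral-control signal and 100% = twice that signal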
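Material: SR-BI-overexpressing, LDLR-lacking CHO cells; schedule: compound exposure 3 h, 37 °C; reagent: DiI-labelled HDL at 10 µg/mL final; technique: bottom-read fluorescence, 550/595 nm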
UUG fidelity = alters start codon recognition fidelity in yeast | S. cerevisiae UUG-firefly luciferase reporter, luminescence/redox ratio | activity score, % at 18.7 µM | hit rate 0.13% among 350,000 | AID 602363;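 active means replicate mean at a twofold rise or more, about +100% in these data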;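 further: firefly luciferase made from a UUG start codon reports start codon fidelity; reporter light over untreated wells divided by growth signal over untreated wells; some hits fall short of that in this replicate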
INS-1E GSIS act = GLuc luminescence reporter in INS-1E cells, primary screen for activators of glucose-dependent secretion of insulin; INS-1E GLuc reporter insulin secretion, 2-3 h; 370,000 tested, 0.61% active; activation, % at 16.6 µM;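 active = lowest replicate activation of at least 40%, so every replicate reaches that level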;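 also: 0% = median of neutral control wells and 100% = median of IBMX positive control wells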
SR-BI DiI inh = blocks mouse SR-BI lipid uptake from DiI-HDL; inhibition, % at 12.5 µM; 320,000 tested, 0.96% active; AID 488896; ldlA[mSR-BI] CHO cells, DiI-HDL uptake fluorescence, 3 h;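 active = mean replicate inhibition of at least 70% and a set share of replicates each scoring 70 or more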;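 also: 0% = median of neutral control wells and 100% = median of positive control wells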
* hit, by the source's call. A selection: hits, their analogues and other compounds. The true share with any hit is near 1.3%.

Results for CC(=O)c1cc(F)c(N2CCCCCC2)cc1C ?
SR-BI DiI-HDL act: -11; UUG fidelity: -3; SR-BI DiI inh: 11

How did CCOc1ccc(C(=O)NCC(=O)Nc2ccc3c(c2)OCO3)cc1OCC do in these assays?
SR-BI DiI-HDL act: -7; INS-1E GSIS act: 7; SR-BI DiI inh: 7

Results for CCOc1cc(C(=O)Nc2ccc3c(c2)OCO3)ccc1OC(F)F ?
SR-BI DiI-HDL act: -89; UUG fidelity: -9; INS-1E GSIS act: 20; SR-BI DiI inh: 89*

How did CCCOc1ccc(C(=O)Nc2ccc3c(c2)OCO3)cc1 do in these assays?
SR-BI DiI-HDL act: 1; UUG fidelity: -14; INS-1E GSIS act: -3; SR-BI DiI inh: -1

Results for CCCOc1c(Cl)cc(C(=O)Nc2ccc3c(c2)OCO3)cc1OCC ?
SR-BI DiI-HDL act: -78; UUG fidelity: 3; SR-BI DiI inh: 78*

Results for CC(C)[C@@H](C)NC(=O)N(C)C[C@H]1OCc2ccccc2-c2ccccc2C(=O)N([C@H](C)CO)C[C@H]1C ?
INS-1E GSIS act: 3

Results for C[C@@H]1CN([C@@H](C)CO)S(=O)(=O)c2ccc(C#CC3CC3)cc2O[C@H]1CN(C)Cc1cccc(F)c1 ?
UUG fidelity: -8; INS-1E GSIS act: 1

What do the screens show for `CC(C)(C)[C@H](N)C(=O)N[C@H]1CCC2C3CC=C4C[C@@H](O)CC[C@]4(C)C3CC[C@@]21C` (stereo partly specified)?
SR-BI DiI-HDL act: 5; INS-1E GSIS act: 202*; SR-BI DiI inh: -5

How did CC(=O)C1CCC2C3CC=C4CC(SC(=N)N)CCC4(C)C3CCC12C (stereo unspecified) do in these assays?
SR-BI DiI-HDL act: 39; INS-1E GSIS act: 284*; SR-BI DiI inh: -39

Results for CC(=O)OCC(=O)C1CCC2C3CC=C4CC(O)CCC4(C)C3CCC12C (stereo unspecified) ?
SR-BI DiI-HDL act: -11; UUG fidelity: -8; SR-BI DiI inh: 11

How did O=C(OC1CCOC1=O)c1cc(-c2ccc(Cl)cc2)nc2ccccc12 (stereo unspecified) do in these assays?
SR-BI DiI-HDL act: -15; UUG fidelity: -19; INS-1E GSIS act: 56*; SR-BI DiI inh: 15

Results for O=C(OC1CCOC1=O)c1cc(-c2ccccc2)nc2ccccc12 (stereo unspecified) ?
SR-BI DiI-HDL act: 17; UUG fidelity: -16; SR-BI DiI inh: -17

How did O=C(C[C@H]1C[C@@H]2c3cc(NC(=O)NC4CCCCC4)ccc3O[C@@H]2[C@H](CO)O1)NC1CCCC1 do in these assays?
INS-1E GSIS act: 15

How did C[N+]1=C(/C=C/Nc2ccccc2Cl)C(C)(C)c2ccccc21 do in these assays?
SR-BI DiI-HDL act: -17; UUG fidelity: -5; INS-1E GSIS act: -28; SR-BI DiI inh: 17

Results for COC(=O)c1ccc2c(c1)C(C)(C)C(/C=C/c1ccccc1O)=[N+]2C ?
SR-BI DiI-HDL act: -76; INS-1E GSIS act: -45; SR-BI DiI inh: 76*

How did CN(C)C(=O)c1cccc(-c2ccc([C@@H]3[C@H]4CN(C(=O)CC5CC5)CC(=O)N4[C@H]3CO)cc2)c1 do in these assays?
INS-1E GSIS act: 11

What do the screens show for `C=C(C)C(=O)Nc1nnc(-c2cccs2)s1`?
SR-BI DiI-HDL act: -22; INS-1E GSIS act: 118*; SR-BI DiI inh: 22

How did CCC(=O)Nc1nnc(-c2cccs2)s1 do in these assays?
SR-BI DiI-HDL act: 20; INS-1E GSIS act: 14; SR-BI DiI inh: -20

How did C[C@@H]1CN([C@@H](C)CO)C(=O)c2c(c3ccccc3n2C)-c2ccccc2CO[C@H]1CN(C)Cc1ccc(O)cc1 do in these assays?
INS-1E GSIS act: -21

Results for Cc1cc(C)nc(NC(N)=NCCc2c[nH]c3ccccc23)n1 ?
SR-BI DiI-HDL act: -1; UUG fidelity: -21; INS-1E GSIS act: 45*; SR-BI DiI inh: 1

What do the screens show for `O=C(N[C@H]1CC[C@H](CCn2cc(Cc3ccccc3)nn2)O[C@H]1CO)c1ccccn1`?
UUG fidelity: -7; INS-1E GSIS act: 6

What do the screens show for `O=C(N/N=C/c1cc([N+](=O)[O-])ccc1O)C1CCCCC1`?
SR-BI DiI-HDL act: -87; INS-1E GSIS act: -16; SR-BI DiI inh: 87*

What do the screens show for `O=C(NN=Cc1ccccc1Cl)c1cccc2ccccc12`?
SR-BI DiI-HDL act: -36; INS-1E GSIS act: 80*; SR-BI DiI inh: 36

Results for CC(C)Oc1ccccc1/C=N/NC(=O)c1ccccc1Cl ?
SR-BI DiI-HDL act: -77; INS-1E GSIS act: -11; SR-BI DiI inh: 77*

Results for Cc1nc2ccc(C(=O)N/N=C/c3cc([N+](=O)[O-])ccc3O)cc2[nH]1 ?
SR-BI DiI-HDL act: -106; UUG fidelity: -25; INS-1E GSIS act: 7; SR-BI DiI inh: 106*

What do the screens show for `O=C(N/N=C/c1cc([N+](=O)[O-])ccc1O)c1ccc(COc2ccc3c(c2)CCC3)o1`?
SR-BI DiI-HDL act: -136; UUG fidelity: -29; SR-BI DiI inh: 136*

What do the screens show for `O=C(N/N=C/c1cc([N+](=O)[O-])ccc1O)c1cccc2ccccc12`?
SR-BI DiI-HDL act: -129; UUG fidelity: -19; INS-1E GSIS act: 18; SR-BI DiI inh: 129*

What do the screens show for `O=C(NN=Cc1cc(Cl)ccc1[N+](=O)[O-])c1cccc2ccccc12`?
SR-BI DiI-HDL act: -40; INS-1E GSIS act: 5; SR-BI DiI inh: 40

Results for Cc1ncc(CO)c(/C=N/NC(=O)c2cc(Br)ccc2O)c1O ?
SR-BI DiI-HDL act: -116; INS-1E GSIS act: 1; SR-BI DiI inh: 116*

What do the screens show for `Cc1nn(-c2ccc(Cl)cc2)c(Cl)c1/C=C(\C#N)C(N)=O`?
SR-BI DiI-HDL act: -16; UUG fidelity: -1; INS-1E GSIS act: 13; SR-BI DiI inh: 16

How did Cc1nn(-c2ccccc2Cl)c(Cl)c1/C=C(\C#N)C(N)=O do in these assays?
SR-BI DiI-HDL act: -6; INS-1E GSIS act: 64*; SR-BI DiI inh: 6

Results for COc1ccccc1-c1cn(CC[C@@H]2CC[C@H](NC(=O)NC(C)C)[C@@H](CO)O2)nn1 ?
UUG fidelity: -3; INS-1E GSIS act: 8

What do the screens show for `CCOc1ccccc1/C=N/NC(=O)c1cccc(Cl)c1`?
SR-BI DiI-HDL act: -86; INS-1E GSIS act: 2; SR-BI DiI inh: 86*

What do the screens show for `Cc1ccc(OCC(=O)N/N=C\c2ccc(C)o2)c([N+](=O)[O-])c1`?
SR-BI DiI-HDL act: 10; INS-1E GSIS act: -3; SR-BI DiI inh: -10

Results for CCOc1ccc(C(=O)N/N=C/c2cc(Cl)ccc2[N+](=O)[O-])cc1 ?
SR-BI DiI-HDL act: -58; INS-1E GSIS act: 92*; SR-BI DiI inh: 58

What do the screens show for `CCN(CC)S(=O)(=O)c1cccc(C(=O)Nc2cccc(C)c2)c1`?
SR-BI DiI-HDL act: 16; UUG fidelity: -19; SR-BI DiI inh: -16

Results for Cc1cc(C(=O)N/N=C\c2ccc(COc3ccc([N+](=O)[O-])cc3)o2)ccc1[N+](=O)[O-] ?
SR-BI DiI-HDL act: -76; UUG fidelity: -7; SR-BI DiI inh: 76*

What do the screens show for `CCOc1ccc(Cl)cc1/C=N/NC(=O)c1ccccc1`?
SR-BI DiI-HDL act: -57; INS-1E GSIS act: 12; SR-BI DiI inh: 57

How did CCN(CC)S(=O)(=O)c1cccc(C(=O)Nc2cc(C)cc(C)c2)c1 do in these assays?
SR-BI DiI-HDL act: -77; UUG fidelity: 1; SR-BI DiI inh: 77*

Sorted by SMILES length (rising): four of the compounds above
What do the screens show for `CCOc1ccccc1/C=N/NC(=O)c1cccc(Cl)c1`?
SR-BI DiI-HDL act: -86; INS-1E GSIS act: 2; SR-BI DiI inh: 86*

What do the screens show for `O=C(NN=Cc1cc(Cl)ccc1[N+](=O)[O-])c1cccc2ccccc12`?
SR-BI DiI-HDL act: -40; INS-1E GSIS act: 5; SR-BI DiI inh: 40

Results for Cc1nc2ccc(C(=O)N/N=C/c3cc([N+](=O)[O-])ccc3O)cc2[nH]1 ?
SR-BI DiI-HDL act: -106; UUG fidelity: -25; INS-1E GSIS act: 7; SR-BI DiI inh: 106*

What do the screens show for `O=C(N/N=C/c1cc([N+](=O)[O-])ccc1O)c1ccc(COc2ccc3c(c2)CCC3)o1`?
SR-BI DiI-HDL act: -136; UUG fidelity: -29; SR-BI DiI inh: 136*
